Earlier results on one substance are cited in US20170224772A1, “COMPOSITION AND KIT FOR PREVENTION OR TREATMENT OF ARTHRITIS, AND METHOD USING THE SAME” (Samsung Electronics Co., Ltd., priority 2014, published 2017).

For the data set the following is noted: cited from earlier work.

Read-outs that look alike come from different tables or passages of the source.

For the substance “CTLA4Ig fusion protein: fusion protein including an extracellular domain of CTLA4 and an Fc domain of immunoglobulin IgG1”, the in vivo half-life result by setting is: (adult rheumatoid arthritis patients, hypodermic injection) “about 14.3 days”; (healthy individuals) “about 16.7 days”; (rheumatoid arthritis patients) “about 13.1 days”.
